# Apparent affinities of Ab-14 variants for a coronavirus HR2 peptide

The measurements come from Engelhart et al. 2022 (doi:10.1038/s41597-022-01779-4) through the FLAb antibody collection.

All variants were tested on one target, the spike HR2 peptide PDVDLGDISGINAS (SARS-CoV-2).

Each scFv is VH, a 15-residue (Gly4Ser)3 linker, VL, as in the parent Ab-14, and differs from it in the CDRs of the heavy chain only.
VH: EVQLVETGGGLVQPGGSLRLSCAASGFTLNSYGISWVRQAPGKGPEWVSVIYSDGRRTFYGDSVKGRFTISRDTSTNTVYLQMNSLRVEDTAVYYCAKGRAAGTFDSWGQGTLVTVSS
VL: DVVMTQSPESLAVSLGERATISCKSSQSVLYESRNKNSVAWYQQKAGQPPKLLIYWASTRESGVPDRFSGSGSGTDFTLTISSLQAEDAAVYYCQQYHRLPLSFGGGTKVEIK

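The parent was found by panning a naive human phage display library on the peptide. Library AAYL49 holds single substitutions and randomly drawn double and triple substitutions in the CDRs. AlphaSeq pools MATa yeast showing the antibodies with MATalpha yeast showing the peptide. Binding brings cells together so that they mate, and sequencing counts the barcode pairs among the diploids. Each replicate has its own calibration line, from reference interactions of the BCL2 family. There are three technical replicates.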

Sequences are complete VH domains. Scale: log10 of Kd in nM, estimated from mating counts; low values are strong binders. Replicates are averaged; those with no signal do not enter the mean. A pair that was not seen in that replicate is written "n.d."; this usually means weak binding, but a binder can also be missed.

VH | replicates, log10 nM | mean, log10 nM | control signals
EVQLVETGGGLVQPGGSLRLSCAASGFTLNSYGISWVRQAPGKGPEWVSVIYSDGDRTFYGMSTKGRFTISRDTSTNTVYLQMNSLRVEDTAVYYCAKGRAAGTFDSWGQGTLVTVSS | n.d. / n.d. / n.d. | n.d. | 0 of 9
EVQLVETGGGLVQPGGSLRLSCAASGFTLNSYGISWVRQAPGKGPEWVSVIKSDGRHTFYGDSVKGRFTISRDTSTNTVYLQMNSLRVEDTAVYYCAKGRAAYTFDSWGQGTLVTVSS | n.d. / n.d. / n.d. | n.d. | 0 of 9
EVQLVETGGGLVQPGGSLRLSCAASGFTLNSYGISWVRQAPGKGPEWVSVIYSDGRRTFNGTSVKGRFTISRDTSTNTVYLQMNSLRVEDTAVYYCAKGRAAGTTDSWGQGTLVTVSS | 6.59 / 4.76 / n.d. | 5.67 | 4 of 9 (4.65)
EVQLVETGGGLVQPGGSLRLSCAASGFTLNSYGISWVRQAPGKGPEWVSVIYSDGRHTFYGDSVKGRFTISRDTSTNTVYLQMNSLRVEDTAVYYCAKARNAGTFDSWGQGTLVTVSS | n.d. / n.d. / n.d. | n.d. | 0 of 9
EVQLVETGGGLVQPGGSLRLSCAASGFTLNSYDISWVRQAPGKGPEWVSVIYSDQHRTFYGDSVKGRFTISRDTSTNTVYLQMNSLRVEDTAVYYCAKGRAAGTFDSWGQGTLVTVSS | n.d. / 4.83 / n.d. | 4.83 | 2 of 9 (3.79)
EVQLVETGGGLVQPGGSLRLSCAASGFTLYSYGISWVRQAPGKGPEWVSVIYSDGRRTFDGLSVKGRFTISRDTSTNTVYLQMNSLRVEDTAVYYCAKGRAAGTFDSWGQGTLVTVSS | n.d. / n.d. / n.d. | n.d. | 0 of 9
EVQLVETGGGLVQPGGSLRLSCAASGFTLNSYGISWVRQAPGKGPEWVSNIYSDGRRTCYGDSVKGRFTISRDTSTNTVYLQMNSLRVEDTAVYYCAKGRAVGTFDSWGQGTLVTVSS | n.d. / n.d. / n.d. | n.d. | 0 of 9
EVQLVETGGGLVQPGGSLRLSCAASGFTLNSYGISWVRQAPGKGPEWVSVIVSDGNRTFYGDSVKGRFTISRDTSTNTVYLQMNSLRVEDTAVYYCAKGRAAGTCDSWGQGTLVTVSS | n.d. / n.d. / n.d. | n.d. | 2 of 9 (4.25)
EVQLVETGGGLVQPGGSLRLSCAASGPTWNLYGISWVRQAPGKGPEWVSVIYSDGRRTFYGDSVKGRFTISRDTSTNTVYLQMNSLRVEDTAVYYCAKGRAAGTFDSWGQGTLVTVSS | 2.73 / 2.20 / 2.54 | 2.49 | 0 of 9
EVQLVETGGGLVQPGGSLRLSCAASGFELNSYGISWVRQAPGKGPEWVSVCYSDGRRTFYGDSVMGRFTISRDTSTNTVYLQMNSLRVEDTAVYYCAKGRAAGTFDSWGQGTLVTVSS | 5.33 / n.d. / n.d. | 5.33 | 2 of 9 (3.85)
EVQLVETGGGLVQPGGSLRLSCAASGHTLNSYGISWVRQAPGKGPEWVSVIYSDGRRTFYGDYVKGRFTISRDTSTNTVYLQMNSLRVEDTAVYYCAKGRAAGTFDIWGQGTLVTVSS | 5.32 / n.d. / n.d. | 5.32 | 4 of 9 (4.41)
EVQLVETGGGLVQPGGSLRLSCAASGFTLNSYGISWVRQAPGKGPEWVSVIYSDGRYTFYGDSVKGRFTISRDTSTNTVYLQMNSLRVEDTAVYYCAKGRANGTFDSWGQGTLVTVSS | 3.95 / n.d. / n.d. | 3.95 | 4 of 9 (4.40)
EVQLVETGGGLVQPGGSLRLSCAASGFYLNSYGISWVRQAPGKGPEWVSPIYSDGRRTFYGGSVKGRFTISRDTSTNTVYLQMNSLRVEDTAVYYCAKGRAAGTFDSWGQGTLVTVSS | 4.32 / 3.39 / n.d. | 3.86 | 3 of 9 (3.40)
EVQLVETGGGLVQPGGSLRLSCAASGFTLNSYGISWVRQAPGKGPEWVSVIYSDGRRTWPGDSVGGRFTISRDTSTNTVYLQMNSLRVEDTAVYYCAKGRAAGTFDSWGQGTLVTVSS | n.d. / 3.34 / n.d. | 3.34 | 0 of 9
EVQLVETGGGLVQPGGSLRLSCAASCMTLNSYGISWVRQAPGKGPEWVSVIYSDGRRTFWGDSVKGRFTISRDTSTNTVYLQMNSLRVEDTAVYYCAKGRAAGTFDSWGQGTLVTVSS | n.d. / n.d. / n.d. | n.d. | 1 of 9 (3.95)
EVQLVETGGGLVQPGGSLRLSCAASGFTLNSYGISWVRQAPGKGPEWVSVIYSYGRRTFCGDSVKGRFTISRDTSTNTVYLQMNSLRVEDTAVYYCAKGYAAGTFDSWGQGTLVTVSS | n.d. / n.d. / n.d. | n.d. | 2 of 9 (4.30)

Three control strains display no target. For library AAYL49, 15% of the pairings with them gave a signal, with a median of 4.06 and one signal in twenty below 2.83, so weak values seen in few replicates may be background. For each scFv, signals with the empty controls are counted beside the result, with their mean in brackets. Parent in this assay: reference entry 0.65, copy in this library 4.11 (one replicate of three).